Biological target: T1, human NCX1 (Homo sapiens, UniProt P32418)
T1 construct: expressed in transfected cells
Experiment: NCX1 inhibition, reverse mode (Ca2+ influx into cells), FLIPR Fluo-4 assay
Assay type: cell-based
Settings: inhibition of NCX1 in reverse mode (Ca2+ influx into cells); read-out: NCX1rv IC50
Description: The sodium/calcium exchanger NCX1 can transport calcium ions and sodium ions through the cell membrane. The transport is an exchange of Ca^2+ and Na^+ in two directions depending on membrane potential and ion gradients. At the first direction, named “forward mode” or “calcium export mode”, Ca^2+ is transported out of the cell and Na^+ is transported into the cell. At the other direction, named “reverse mode” or “calcium import mode”, the transport directions are vice versa. The effect of the compounds of the invention on NCX1 was determined in CHO cells stably expressing human NCX1 (gene symbol SLC8A1; cf. WO 2009/115238). The assay is based on the monitoring of intracellular Ca^2+ concentrations using a calcium-sensitive fluorescence dye which is detected by means of a FLIPR device (Fluorimetric Imaging Plate Reader, Molecular Devices).
The assay is based on the monitoring of intracellular Ca^2+ concentrations using the calcium-sensitive dye Fluo-4. CHO cells expressing NCX1 were loaded with the dye by means of the acetoxymethyl ester Fluo-4 AM (Invitrogen, F14202), which is cleaved intracellularly by esterase activity to yield the charged species of free Fluo-4. […] The intracellular elevation of Ca^2+ ions was detected by measuring the fluorescence of Fluo-4 at a wavelength of 520 nm by a FLIPR device. […]

2-((S)-2-Phenyl-chroman-6-yloxy)-thiazole-5-carboxylic acid (2-dimethylamino-ethyl)-amide [compound 279]
IC50: 500 nM
